# According to patent publication US10806913B2, “Methods for better delivery of active agents to tumors” (Sorrento Therapeutics, Inc., priority 2015, dated 2020):
# System: JIMT-1 tumors
# Test: Delivery of trastuzumab to xenograft tumors via administration to the skin
# Format: in vivo, mice
# Protocol: The ability to deliver trastuzumab (an anti-cancer drug) to tumors via administration to the skin was tested in a mouse xenograft tumor model. The HER-2 positive JIMT-1 human breast cancer cell line was used to generate xenograft tumors in mice. An array of needles having a nanotopography surface was fabricated on a patch and applied to the dorsal surface of mice presenting with tumors. These mice were then administered different amounts of trastuzumab at different administration rates to the skin and the concentration of trastuzumab in tumors was assessed.
substance,measurement,setting,value
trastuzumab,concentration of trastuzumab in tumors,"0.22 mg to the skin at 100 μ1/hr compared to 2 mg i.v., FIG. 8",higher concentrations
same,efficacy in treating tumors (areas of tumor necrosis),"skin administration compared to higher doses given intravenously, FIG. 9A-B",greater or equivalent efficacy
